The target in this assay is human Nav1.7 (Homo sapiens (Human), UniProt Q15858). Kind of assay: Nav 1.7 in vitro PatchXpress (PX) assay. The assay is classed as cell-based.

Sequences of proteins named here, by UniProt entry; tags and fusion partners are left off.
UniProt Q15858, whole entry: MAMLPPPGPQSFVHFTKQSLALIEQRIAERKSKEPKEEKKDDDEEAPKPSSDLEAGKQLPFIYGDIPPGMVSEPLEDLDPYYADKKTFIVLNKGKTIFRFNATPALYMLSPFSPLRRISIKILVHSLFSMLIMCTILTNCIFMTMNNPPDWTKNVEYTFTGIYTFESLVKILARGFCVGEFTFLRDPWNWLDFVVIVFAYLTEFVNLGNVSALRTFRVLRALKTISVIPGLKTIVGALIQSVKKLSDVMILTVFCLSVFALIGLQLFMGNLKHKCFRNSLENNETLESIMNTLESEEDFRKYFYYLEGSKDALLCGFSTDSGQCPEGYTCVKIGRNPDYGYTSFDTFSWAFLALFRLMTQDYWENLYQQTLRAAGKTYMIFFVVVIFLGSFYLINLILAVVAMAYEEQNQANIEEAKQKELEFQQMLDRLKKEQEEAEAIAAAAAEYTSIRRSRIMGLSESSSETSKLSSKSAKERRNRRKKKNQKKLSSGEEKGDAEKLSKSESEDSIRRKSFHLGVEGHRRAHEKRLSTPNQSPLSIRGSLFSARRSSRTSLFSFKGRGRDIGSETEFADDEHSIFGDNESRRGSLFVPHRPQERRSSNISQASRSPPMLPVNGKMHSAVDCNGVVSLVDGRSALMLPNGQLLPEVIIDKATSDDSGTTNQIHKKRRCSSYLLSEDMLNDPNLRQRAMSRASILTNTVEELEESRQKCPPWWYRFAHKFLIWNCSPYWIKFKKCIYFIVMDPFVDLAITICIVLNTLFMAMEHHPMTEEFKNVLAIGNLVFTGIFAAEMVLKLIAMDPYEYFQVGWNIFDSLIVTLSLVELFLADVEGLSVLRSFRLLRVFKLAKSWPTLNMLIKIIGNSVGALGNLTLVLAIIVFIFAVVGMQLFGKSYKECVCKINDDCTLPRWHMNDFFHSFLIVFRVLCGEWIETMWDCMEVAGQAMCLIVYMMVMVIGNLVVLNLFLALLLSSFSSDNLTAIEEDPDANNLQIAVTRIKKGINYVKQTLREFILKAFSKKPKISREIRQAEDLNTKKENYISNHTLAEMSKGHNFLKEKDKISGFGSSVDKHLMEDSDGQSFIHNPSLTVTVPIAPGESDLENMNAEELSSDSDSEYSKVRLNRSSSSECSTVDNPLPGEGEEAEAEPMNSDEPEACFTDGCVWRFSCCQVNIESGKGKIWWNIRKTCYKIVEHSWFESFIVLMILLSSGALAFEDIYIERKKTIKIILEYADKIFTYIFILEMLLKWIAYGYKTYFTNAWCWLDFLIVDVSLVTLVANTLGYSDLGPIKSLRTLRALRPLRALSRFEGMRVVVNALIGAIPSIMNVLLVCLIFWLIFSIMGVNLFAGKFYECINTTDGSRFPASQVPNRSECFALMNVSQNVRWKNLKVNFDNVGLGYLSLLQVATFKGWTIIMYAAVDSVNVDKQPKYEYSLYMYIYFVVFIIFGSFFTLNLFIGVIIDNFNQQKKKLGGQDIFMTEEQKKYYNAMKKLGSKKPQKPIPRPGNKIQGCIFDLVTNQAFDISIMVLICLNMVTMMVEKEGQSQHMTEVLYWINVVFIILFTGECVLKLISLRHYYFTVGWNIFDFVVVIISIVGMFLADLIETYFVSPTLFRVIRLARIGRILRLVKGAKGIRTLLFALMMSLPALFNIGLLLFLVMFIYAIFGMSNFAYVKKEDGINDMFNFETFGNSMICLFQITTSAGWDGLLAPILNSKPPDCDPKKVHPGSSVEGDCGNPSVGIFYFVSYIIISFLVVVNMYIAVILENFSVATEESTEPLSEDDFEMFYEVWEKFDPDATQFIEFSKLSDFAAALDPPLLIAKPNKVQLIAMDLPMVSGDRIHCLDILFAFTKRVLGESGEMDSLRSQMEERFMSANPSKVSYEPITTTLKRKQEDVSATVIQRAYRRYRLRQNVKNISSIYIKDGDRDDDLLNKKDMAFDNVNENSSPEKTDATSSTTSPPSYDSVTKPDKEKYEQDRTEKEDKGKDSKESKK

In the case of `CS(=O)(=O)NC(=O)c1ccc(-c2cnc(Oc3ccc(Cl)c(F)c3)c(Cl)c2)c(OC(F)F)c1` [Example 460, 4-(5-chloro-6-(4-chloro-3-fluorophenoxy)-3-pyridinyl)-3-(difluoromethoxy)-N-(methylsulfonyl)benzamide], the half-maximal inhibitory concentration (IC50) – broadly, the point on the concentration scale where inhibition reaches its midpoint – was determined as 96.2 nM.
The compound `COc1cc(C(=O)NS(C)(=O)=O)ccc1-c1cnc(Oc2ccc(F)cc2Cl)c(Cl)c1` [Example 377, 4-(5-chloro-6-(2-chloro-4-fluorophenoxy)-3-pyridinyl)-3-methoxy-N-(methylsulfonyl)benzamide] gave an IC50 of 61.2 nM. Against the preceding compound, the IC50 is about 1.6-fold lower.

The record behind these values is patent publication US9663508B2, “Biaryl acyl-sulfonamide compounds as sodium channel inhibitors” (AMGEN INC., priority 2013, dated 2017).
